Measured values reported in patent US5030649A, “2-aminoethylamine derivatives, compositions of the same and use of said compounds in medicine” (dated 1991).

test: Mouse tail-flick test (analgesic activity, subcutaneous); conditions: subcutaneous in isotonic saline, 30 min after dosing, activity = percent of mice doubling initial reaction time

SMILES | MOUSE TAIL-FLICK ED50 SUBCUTANEOUS [mg/kg]
CN(C)C[C@H](c1ccccc1)N(C)C(=O)Cc1ccc2c(c1)CCCC2 | 0.412
CN(C)C[C@H](Cc1ccccc1)N(C)C(=O)Cc1ccc(Cl)c(Cl)c1 | 9.09
CN(C)C[C@H](c1ccccc1)N(C)C(=O)Cc1cccc(C(F)(F)F)c1 | 0.187
